Test results published in publication PMC8467848 (Molecules, 2021).

By UniProt entry, the sequences of proteins in these tests, tags left out.
UniProt P33534, whole entry: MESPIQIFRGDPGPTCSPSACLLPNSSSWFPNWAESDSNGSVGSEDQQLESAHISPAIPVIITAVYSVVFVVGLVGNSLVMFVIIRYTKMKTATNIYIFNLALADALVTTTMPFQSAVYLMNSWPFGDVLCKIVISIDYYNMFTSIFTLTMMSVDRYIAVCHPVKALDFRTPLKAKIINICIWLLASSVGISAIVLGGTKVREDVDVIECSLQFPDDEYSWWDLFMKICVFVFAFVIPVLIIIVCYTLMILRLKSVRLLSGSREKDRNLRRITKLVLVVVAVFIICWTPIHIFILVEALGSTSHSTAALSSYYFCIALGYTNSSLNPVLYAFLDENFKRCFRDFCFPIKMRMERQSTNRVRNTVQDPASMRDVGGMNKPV
UniProt P42866, whole entry: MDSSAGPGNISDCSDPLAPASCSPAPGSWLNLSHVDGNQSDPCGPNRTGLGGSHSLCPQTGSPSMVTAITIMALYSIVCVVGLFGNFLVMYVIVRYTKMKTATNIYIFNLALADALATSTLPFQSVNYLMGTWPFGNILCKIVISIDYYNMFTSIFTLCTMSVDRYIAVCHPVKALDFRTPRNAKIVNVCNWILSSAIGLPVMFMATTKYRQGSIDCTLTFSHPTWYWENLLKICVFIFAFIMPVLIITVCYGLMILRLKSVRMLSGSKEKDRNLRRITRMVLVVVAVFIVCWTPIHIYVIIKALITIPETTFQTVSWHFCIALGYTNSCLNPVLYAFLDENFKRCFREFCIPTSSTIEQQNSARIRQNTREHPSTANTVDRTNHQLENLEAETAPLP

Legend:
δ-opioid receptor = δ-opioid receptor (Mus musculus, UniProt P32300); conditions: for affinity towards δ-receptors in words: abstract; for Ki: read-out: Ki (nM) δ, mouse brain membranes, tested as hydrochlorides, mean ± SEM of at least three experiments
κ-opioid receptor = κ-opioid receptor (Mus musculus, UniProt P33534); assay: Radioligand binding assay, displacement of [3H]U69593 from mouse brain membranes; conditions: abstract
μ-opioid receptor = μ-opioid receptor (Mus musculus, UniProt P42866); assay: Radioligand binding assay, displacement of [3H]DAMGO from mouse brain membranes

| Structure (SMILES) | affinity towards δ-receptors in words (δ-opioid receptor) | Ki (δ-opioid receptor) | affinity towards κ-receptors in words (κ-opioid receptor) | μ-affinity / binding in words (μ-opioid receptor; abstract and Figure 6 legend) | fold lower μ-affinity compared to its isomer (μ-opioid receptor; 24 vs isomer 20, 54 vs isomer 53) |
| --- | --- | --- | --- | --- | --- |
| CCC(=O)N1C2CCC1C1CCC2N1CC=C1CCc2ccccc21 (as salt: hydrochloride) | negligible affinity | > 1000 nM | negligible affinity |  |  |
| CCC(=O)N1C2CCC1C1CCC2N1CC=C1CCc2cc(F)ccc21 (as salt: hydrochloride) | negligible affinity | > 1000 nM | negligible affinity | nanomolar range |  |
| CCC(=O)N1C2CCC1C1CCC2N1CC=C1CCc2cc(Cl)ccc21 (as salt: hydrochloride) |  | > 1000 nM |  |  |  |
| CCC(=O)N1C2CCC1C1CCC2N1CC=C1CCc2cc(Br)ccc21 (as salt: hydrochloride) |  | > 1000 nM |  |  |  |
| CCC(=O)N1C2CCC3C1CCC2N3CC=C1CCc2ccccc21 (as salt: hydrochloride) | negligible affinity | > 1000 nM | negligible affinity |  | 2 fold |
| CCC(=O)N1C2CCC3C1CCC2N3CC=C1CCc2cc(Cl)ccc21 (as salt: hydrochloride) | negligible affinity | > 1000 nM | negligible affinity |  |  |
| CCC(=O)N1C2CCC3C1CCC2N3CC=C1CCc2cc(Br)ccc21 (as salt: hydrochloride) |  | > 1000 nM |  |  |  |

Structures can show the parent of a compound that is named as a salt.
